Source: PubChem (National Center for Advancing Translational Sciences (NCATS))
Rows were chosen to be rich in hits. Some 2.3% of all compounds tested hit in one or more screens of this group.
Nrf2 block – inhibitors of Nrf2 signaling | A549 ARE-Fluc reporter, luciferase luminescence, 18-24 h | Potency, µM (series often up to 46 µM), hits mostly inhibitors | 360,000 compounds, 2.1% hits; note: nearly all actives have a fitted effect of over 60% in size
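Nrf2 function is reported as luminescence of an ARE-controlled luciferase in A549 cells. Compounds were tested at several concentrations, and a CellTiter-Fluor read on the same wells flagged cytotoxicity.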
Rango complex inh – Rango-importin beta binding inhibition; Q14974; Rango CFP/YFP FRET sensor + importin beta, 45 min; Potency, µM (highest dose often 92.2 µM); 340,000 compounds, 0.031% hits; AID 540263; calls by dose curve; note: nearly all actives have a fitted effect of over 15% in size
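FRET biosensor Rango (snurportin 1 IBB between N-terminal EYFP and C-terminal Cerulean), 50 nM in PBS/1 mM DTT/0.02% Tween-20/0.1% BSA, preincubated 5 min RT with compound; 0.125 microM importin beta added, 45 min RT, CFP/YFP FRET ratio read.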
Rango dissoc inh – prevents RanGTP from dissociating the Rango-importin beta complex | O95149+P62826 | Biochemical FRET Rango-importin beta, RanGTP-induced dissociation | Potency, µM (titrated, usually from 46.1 µM) | 340,000 compounds, 0.071% hits; calls by dose curve; note: nearly all actives have a fitted effect of over 45% in size
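FRET read at 45 min, room temperature: inhibitors block the CFP/YFP signal rise when RanGTP (0.6 uM Ran, 2 mM GTP, 0.2 uM RCC1) frees Rango (0.1 uM) from importin beta (0.25 uM). Pre-read after 5 min compound exposure flags interference.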
A549 viability – A549 cytotoxicity, counter-screen for Nrf2 inhibitors. A549 ARE-Fluc cells, CellTiter-Fluor viability, 18-24 h. Potency, µM (series often up to 46 µM), most hits filed as inhibitors. 390,000 compounds, 0.16% hits. AID 504648
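Cytotoxicity counterscreen: CellTiter-Fluor fluorescence was measured in A549 ARE_Fluc cells after 18-24 h of compound exposure in a concentration series. The subsequent BugLite luminescent read reports ARE-luciferase activity.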
Nrf2 ARE act – activators of Nrf2 (ARE) signaling | AREc32 ARE-luciferase reporter (MCF7-derived line), luminescence, 24 h | Potency, µM (highest dose often 46.1 µM), usual class: activators | 410,000 compounds, 0.31% hits; note: nearly all actives have a fitted effect of over 65% in size
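For detection, Steady-Glo was added and plates sat 30 min at RT; before that, AREc32_Fluc cells grown overnight in OPTI-MEM/5% FBS had been treated with 23 nL compound for 24 hr at 37 deg C.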
Hits are given with their value; 0 = inactive; ? = inconclusive; - = no result given. Unless noted, calls come from the whole dose curve; as a rule, active = well fitted curve in the direction sought with a large enough effect; inconclusive = small, poorly fitted or top-dose-only effect, or another doubt; inactive = no such curve, though single readings can be large; an effect the other way counts as inactive or inconclusive.

SMILES	Nrf2 block	Rango complex inh	Rango dissoc inh	A549 viability	Nrf2 ARE act
Cc1ccc(C(=O)OCn2ncc(Cl)c(Cl)c2=O)cc1	?	0	0	-	?
COc1ccc(S(=O)(=O)Nc2cc3c(cc2NCc2ccccc2)n(C)c(=O)n3C)cc1	0	-	-	0	11.2µM
COc1cc2c(c(OC)c1OC)-c1ccc(OC)c(=O)cc1C(NC(=O)c1ccccc1)CC2 (centres undefined)	?	0	0	0	0
COc1cc2c(c(OC)c1OC)-c1ccc(SC)c(=O)cc1C(NC(=O)c1ccccc1)CC2 (centres undefined)	?	?	?	18.4µM	0
O=C(CNc1cccc2ccccc12)N/N=C/c1ccc([N+](=O)[O-])o1	16.4µM	0	0	?	0
O=C(CNc1cccc([N+](=O)[O-])c1)N/N=C/c1ccc([N+](=O)[O-])o1	0	0	0	0	0
O=C(O)/C=C/c1ccc([N+](=O)[O-])o1	?	0	0	0	?
COc1ccccc1OCC(=O)N/N=C/C=C/c1ccc([N+](=O)[O-])o1	?	0	0	?	?
Cc1ccccc1OCC(=O)N/N=C/c1ccc([N+](=O)[O-])o1	?	?	16.4µM	0	0
CCCCCCCC(=O)N/N=C/c1ccc([N+](=O)[O-])o1	?	?	0	0	0
O=C(Cc1ccc([N+](=O)[O-])cc1)N/N=C/c1ccc([N+](=O)[O-])o1	20.6µM	0	0	0	0
O=[N+]([O-])c1ccc(/C=N/N=C/c2ccc([N+](=O)[O-])o2)o1	?	0	0	20.6µM	3.98µM
O=C(Cn1cc(C(=O)c2cccs2)c2ccccc21)Nc1ccc(Br)cc1	0	-	-	0	0
Cc1cc2ncn(/N=C/c3ccc([N+](=O)[O-])o3)c2cc1C	0	58µM	0	0	0
O=C(N/N=C/c1ccc([N+](=O)[O-])o1)c1cc(-c2ccc(-c3ccccc3)cc2)nc2ccccc12	?	0	0	0	0
O=C(CCN1CCN(c2ccccc2)CC1)N/N=C/c1ccc([N+](=O)[O-])o1	20.6µM	0	0	?	0
Cc1ccc(S(=O)(=O)N/N=C\c2ccc([N+](=O)[O-])o2)cc1C	?	0	0	0	0
Cc1ccc(-c2cc(C(=O)N/N=C/c3ccc([N+](=O)[O-])o3)c3ccccc3n2)o1	20.6µM	0	0	?	0
Cc1cc(C)cc(OCC(=O)N/N=C/c2ccc([N+](=O)[O-])o2)c1	20.6µM	0	0	?	0
O=C(COC(=O)c1cccnc1)Nc1ccc2c(c1)OCO2	0	0	0	0	0
COc1ccc(-c2cc3nc(C)cc(C)n3n2)cc1	?	0	0	0	0
Cc1cc(C)n2nc(-c3ccc(Cl)cc3)cc2n1	?	0	0	0	14.1µM
Cc1cc(C)n2nc(-c3ccc(Br)cc3)cc2n1	?	0	0	0	2.24µM
Cc1cc(-c2ccc(Cl)cc2)n2nc(C)cc2n1	0	0	0	0	0
COc1ccc(C2Nc3ccccc3C(=O)N2Cc2ccccc2Cl)cc1COc1ccc(NC(C)=O)cc1 (centres undefined)	0	-	-	0	-
SMILES	Nrf2 block	Rango complex inh	Rango dissoc inh	A549 viability	Nrf2 ARE act
COc1cccc(C2c3c(ncn(-c4ccccc4Br)c3=N)Oc3ccc4ccccc4c32)c1 (centres undefined)	0	-	-	0	-
Cc1cc(Nc2ccc(Br)cc2)nc(C)n1	0	-	-	0	0
COc1ccc(Cn2cc(C(=O)c3ccc(C)c(C)c3)c(=O)c3ccccc32)cc1	?	-	-	?	0
COc1cccc(-c2cc(C(=O)Nc3c(C)nn(Cc4ccccc4Cl)c3C)no2)c1	6.51µM	-	-	0	0
Cc1nn(Cc2ccc(Cl)c(Cl)c2)c(C)c1NC(=O)c1sc2ccccc2c1Cl	14.6µM	0	0	0	0
COc1ccccc1-c1cc(C(=O)Nc2c(C)nn(Cc3ccc(Cl)cc3)c2C)no1	18.4µM	-	-	?	0
COc1ccc(-c2cc(C(=O)Nc3c(C)nn(Cc4ccc(Cl)cc4)c3C)no2)cc1	?	0	0	?	0
COc1ccc2c(c1)CCc1c(C(=O)Nc3c(C)nn(Cc4ccc(C)cc4)c3C)noc1-2	14.6µM	-	-	0	0
Cc1nn(Cc2ccccc2)c(C)c1NC(=O)c1noc2c1CCc1ccccc1-2	?	0	0	0	0
